Laboratory results reported in ChEMBL document CHEMBL5528082 (J Med Chem, 2024).

Tested on: Dihydrofolate reductase (Staphylococcus aureus)
Conditions: dose 100.0 nM

Which inhibition does the source give for `CCc1cc(Oc2cnc(N)nc2N)c(C(C)C)cc1OC` here?
Its inhibition is 38.9%.

`COc1cc(C(C)C)c(Oc2cnc(N)nc2N)cc1-c1ccccc1` was tested. Which inhibition did it give?
The inhibition was greater than 100%.
